This passage reports relative presence of GFP species in the aggregates results from paper doi:10.1101/2021.01.29.428744.

The target in the assay is AlexaFluor594-tagged α-SYN pre-formed fibrils (PFFs) (human), P37840. Briefly: two-color coincidence detection. The settings on record: remark: other sources report otherwise.

B1: GABARAP, O95166 1-117 (natural protein)
chain: MKFVYKEEHPFEKRRSEGEKIRKKYPDRVPVIVEKAPKARIGDLDKKKYLVPSDLTVGQFYFLIRKRIHLRAEDALFFFVNNVIPPTSATMGQLYQEHHEEDFFLYIAYSDESVYGL
modifications: here or on the partner: maleimide-modified Alexa Fluor 594 dye on the cysteine thiol of A90C
As to B1, the relative presence of GFP species in the aggregates was 0.32.
